Data from PMC10318527, “Utilization of dietary mixed-linkage β-glucans by the Firmicute Blautia producta” (The Journal of Biological Chemistry, 2023).

How the values were obtained:
Experiment in all cases: purified protein, by the assay type
Details in all cases: other: PAHBAH assay, 100 mM HEPES pH 6.5, 37 °C
[1] = substrate: OC[C@H]1O[C@@H](O[C@@H]2[C@@H](O)[C@H](O[C@H]3[C@H](O)[C@@H](CO)OC(O)[C@@H]3O)O[C@H](CO)[C@H]2O)[C@H](O)[C@@H](O)[C@@H]1O
[2] = substrate: OC[C@H]1O[C@@H](O[C@H]2[C@H](O)[C@@H](CO)OC(O)[C@@H]2O)[C@H](O)[C@@H](O)[C@@H]1O
[3] = substrate: OC[C@H]1O[C@@H](O[C@H]2[C@H](O)[C@@H](O)[C@H](O[C@H]3[C@H](O)[C@@H](CO)OC(O)[C@@H]3O)O[C@@H]2CO)[C@H](O)[C@@H](O)[C@@H]1O; format: biochemical, Blautia producta ATCC 27340

Protein | Km [1] [µM] | Km [2] [µM] | Km [3] [µM]
BpGH3-X62MLG (Blautia producta ATCC 27340 = DSM 2950) (protein) MENKYVIDWDKYAALARRAAAEGAVLLKNDNQALPLKKETISVFGRIQYHYYKSGTGSGGLVNAKYVIGIMDALQEEKDLTLDEELAAVYRSWIMEHPFDQGSGWAQEPWSQEEMPLDEKMVEEAAARSDTAVIVIGRTAGEDRDASAEKGSYLLTDLEEDMLEKVCRLFKKSIVVLNVGNIIDMKWVEKYNPSAVLYTWQGGQEGGHSAADVLTGRVNPCGKLADTIARDISDYPSTENFGGGDFDIYAEDIYVGYRYFETFARDKVLYPFGFGLSYTSFRTECGPIKRLDGETSVCVKVTNAGSCAGKEVVQMYVEPPQGKLGKPSRNLAAFAKTKCLQPGESQELVLKVTDYYISSYDDSGAAGFKSCYVLENGSYGIYVGTDVRGAEAAGSFYIPETIATSVCTEAAGPVRQFKRMRAKEGGALAWEEAPLRTHKMQERIHKEILPDITYTGNKGFTLGEVFDRDISLNEFLAQLSEEDLCCIVRGEGMCSPKVTPGTAAAFGGVTESLQKLGIPCGCCADGPSGIRMDCGTPAFSMPNGTCLACTFDTELSEELYEMEGAELRKNRIDTLLGPGINIHRNPLNGRNFEYFSEDPYLTGIMASAQLKGMARFGVTGTIKHFAANNQEYHRRLLDSVMSERALREIYLRGFEIAVKEGKAYSIMTTYGAINGLWTASNYDLLTTILRKEWGFEGMVMTDWWADLNDEGGQPSTDNLAAMVRSQNDVYMVTQDSLNNKDNLMESLKNGTLKRGALLRCAGNICRMLMRSPVMERTLGRMSEEEKKAGEVMAGEDKVDFDITYHKVQGSLVLDGTKIDTSKGNSVVYGILLDTFGSYKVRLKVKADSGELAQIPVSVFANGHLEGTVTINGTKGEWIEIEKTIGPLFGPHNYVRLYFAQSGMQIQTVTIELQEKMDRGF | 240 ± 40 | 240 ± 20 | 
BpGH3-AR8MLG (Blautia producta ATCC 27340 = DSM 2950) (protein) MKLKNKTFTGTTSNEVTARETENRKLARLAAAEGFVLLKNQDHILPLKKGIKLGLYGAGAVKTIKGGTGSGDVNERECVNICQGLENAGYEITSSAWLEAYASLYEETRLKWRDEILGKLEAYDNNFFEAYSTTPFFMPCGNPVDVDKASDDGADTAIYVLSRIAGENADRHDTEGDYYISAEEKALIAQLSKAYDSLVLVINTGGLVDLAFVQEFDNIKAVLQFVQAGQEGGSAFADVVSGKVTPSGKLADTWAFDYKDYPNSETFSFKNGDVNTEKYQEGIYVGYRYFDTFDVPVLYPFGFGLSYTDFMICTEEIKTVNTESGKPEIAVTVKVTNTGDTYCGKEVVQIYVSCPQGKLAKEYRRLAGFAKTEELKPGESCRITITFPVYQLASFHEENAAWVLEEGTYGVWTGNSIQGAKLAGSLCVDKDAILVQCEHICPVKEELTELTPDSSRMKEKEAAWLEKAAGLPSVHIDAEKITKETVVYTELPERFTGRAGEIVESLSVEQLIQMSAGDPGKGQDAVLGSAGITVPGAAAETSSAASGEPWNLPSIALADGPAGLRLNQKYQVVDGEIVRENFMKSIEKGFFAEPSPEVGTAYYQFCTAIPVGTLLAQTWNAELVKEVGEMIGKEMELFQVTLWLAPGMNIHRNPLCGRNFEYYSEDPLLSGIMASAMTLGVQKVPGCGTTIKHFACNNQEDNRMGSDSVLSERALREIYLKGFEIAVKNSQPMSIMTSYNMINGVHAANCYDICTRAARDEWEFAGAVMTDWTTTFASPRGECTAAGCMRAGNDMVMPGIPKDHENIRRELEEGTLDIRELKRCICNTVNLILQSNRYENAVSYLEQFEGLDAYLSVERSN |  |  | 240 ± 40
